scFv variants of Ab-14 (light chain) against a SARS-CoV-2 spike peptide

Data: MIT Lincoln Laboratory AlphaSeq set, Engelhart et al. 2022, doi:10.1038/s41597-022-01779-4, as distributed in FLAb.

The target is the same throughout: PDVDLGDISGINAS, from the HR2 region of SARS-CoV-2 spike.

The variants keep the heavy chain, the linker and the frameworks of Ab-14 (scFv order VH, the linker GGGGSGGGGSGGGGS, VL).
VH: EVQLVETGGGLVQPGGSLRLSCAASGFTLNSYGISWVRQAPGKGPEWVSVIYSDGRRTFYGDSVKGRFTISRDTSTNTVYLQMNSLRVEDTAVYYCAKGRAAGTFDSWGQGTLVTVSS
VL: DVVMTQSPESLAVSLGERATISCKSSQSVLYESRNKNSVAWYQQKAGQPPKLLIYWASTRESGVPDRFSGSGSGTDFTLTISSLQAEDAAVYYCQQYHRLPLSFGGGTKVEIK

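Library AAYL50 holds single substitutions and randomly drawn double and triple substitutions in the CDRs. The assay is AlphaSeq: two haploid yeast populations carry antibody and antigen on their surface. Mating (16 h, 30 °C) was followed by selection of diploids and sequencing of their barcodes. Each replicate has its own calibration line, from reference interactions of the BCL2 family. There are three technical replicates.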

The parent's light chain CDRs are KSSQSVLYESRNKNSVA, WASTRES, QQYHRLPLS; each variant's own CDRs replace them letter for letter. All variants listed here change A40 of the VL, counted from its first residue. The read-out is the apparent dissociation constant on a log10 scale (nM): the lower, the stronger. A mean of the replicates is given; it leaves out those without a signal. Where no diploid with the target was found in any replicate, the entry reads "no signal": below detection, most likely a poor binder, though not proof of it. Empty control strains, which show no peptide, gave a signal in 18% of pairings with library AAYL50; the median was 4.19 and 95% of these signals were weaker than 2.99. No background was subtracted.

CDR-L1,CDR-L2,CDR-L3,"mean, log10 nM",detected
KSSQSVTYESRNKNSVN,WASTRES,QVYHRLPLS,no signal,0/3
KWSQEVLYESRNKNSVR,WASTRES,QQYHRLPLS,no signal,0/3
KSSQSVLYESRNKNSVC,NASKRES,QQYHRLPLS,0.80,3/3
KSSQSVLYESRNKNSVW,WASTRES,QQYHRLQIS,3.92,1/3
KSSQSVLYESRNKNSVS,WASWRES,QQYVRLPLS,2.52,3/3
KSSQSVLYESRNKNSVN,WASTRES,QQYHRLPLS,4.15,1/3
KSSQSVLYESRNKNSYI,WASTREQ,QQYHRLPLS,no signal,0/3
KSSQRVLLESRNKNSVL,WASTRES,QQYHRLPLS,5.48,2/3
KSSQSVLYESRNKNSVK,WASTRES,QQYHRVPLS,no signal,0/3
KSSQSVLYTSRNKNSVD,WASDRES,QQYHRLPLS,4.49,1/3
FSSQSVLYESRNKNSVQ,WASTRES,QQYHRLPLS,no signal,0/3
KSGQSMLYESRNKNSVT,WASTRES,QQYHRLPLS,5.83,1/3
KSSQSVLYESRNKNSVE,WASTRPS,QQYHRLPLS,no signal,0/3
KSSCSVLYESRNKNSVM,WASTRES,QQYHWLPLS,5.27,1/3
KSSQSVLYVSRNKNSVG,WASTRES,QQYHYLPLS,3.73,2/3
KSSQSVLYESRNKNVVN,WASTRES,QQYHRLHLS,5.98,1/3
KSSQSVGYESREKNSVD,WASTRES,QQYHRLPLS,no signal,0/3
KKSQSVLYESRNKNSVP,WASTRES,NQYHRLPLS,no signal,0/3
KSSQSPLYESRNKNSVQ,WASTRES,QQYHVLPLS,no signal,0/3
KSSQSVLYESRNKNSVN,WISTGES,QQYHRLPLS,no signal,0/3
KSSQSVLYESRNKNTVY,WASTVES,QQYHRLPLS,no signal,0/3
KNSQSVLYESRNKNSVK,WASTRES,QQYHRLCLS,no signal,0/3
KSSQSVLYVSRNKNSVR,WASTRLS,QQYHRLPLS,no signal,0/3
KSSQSVLYESRNWNSVG,WASTRES,QQYHRLPLS,4.94,3/3
KSSQSVLYLSRNKNSVP,WASTRES,QQYHRHPLS,4.35,1/3
KSSQSVPYESRNKNSVN,WASTREG,QQYHRLPLS,no signal,0/3
KSSQSFGYESRNKNSVC,WASTRES,QQYHRLPLS,3.46,3/3
KSSQSVLMESRNKNSVG,WASTRES,QMYHRLPLS,no signal,0/3
KSSQSVLYESRNKNSPC,WASTRES,QQRHRLPLS,no signal,0/3
KSSQSVLYESRNKNLVL,WASTRES,QQYHGLPLS,4.89,1/3
KSSQSVPYESRNKNSVT,WASTRES,QQLHRLPLS,no signal,0/3
KSSQSVLRESRNKRSVY,WASTRES,QQYHRLPLS,6.10,1/3
KSSQSVLYESRNMNSVQ,WISTRES,QQYHRLPLS,4.01,1/3
KSQQSVLYESRNKNSVF,WASCRES,QQYHRLPLS,no signal,0/3
KSSQSVLYESRNKNSVP,WAVTRES,QQYYRLPLS,0.92,3/3
KSSQSVLYESRIKFSVE,WASTRES,QQYHRLPLS,5.69,1/3
KSSQSVLYESRNKNSQP,WAKTRES,QQYHRLPLS,no signal,0/3
KSSQSVDRESRNKNSVT,WASTRES,QQYHRLPLS,no signal,0/3
KSSQSVLYESRNKNSVS,WASTRES,GQVHRLPLS,no signal,0/3
KSSQVVLYESRNKNSVL,WASTRES,QIYHRLPLS,no signal,0/3
KSSQSVLDESRNKNSVE,WASTRES,QQYHRLPLR,3.69,2/3
KSSQSVLYESRNKNSVD,WASTRES,QQYHRLPLS,no signal,0/3
KSSQSVLYESRNKNSVI,WASTRPS,QQYHHLPLS,3.63,1/3
KSSQSVLYESRNKNSVE,WASTWES,QQMHRLPLS,no signal,0/3
KSSQSVLYESRNKNSVE,WASTRPS,QQYHELPLS,3.59,3/3
KSSQSVLYESRNKNSVF,WASTRES,MQYHRLPLS,5.52,1/3
KSSQSVLSESRNKNSVV,WASTYES,QQYHRLPLS,3.75,1/3
KSSQSVLYESMNKGSVF,WASTRES,QQYHRLPLS,no signal,0/3
KSSQSVLYESRNHNSVW,WASTRES,QQYHRLPLQ,3.63,1/3
KNSQSVLYESRNKNSVG,WASTWES,QQYHRLPLS,4.68,1/3
KSSQSVCYESRNKNKVG,WASTRES,QQYHRLPLS,4.70,1/3
KSSQSVLYESRNKNSVE,WALTRDS,QQYHRLPLS,4.37,3/3
KSSQSVLYESRNKNSVR,WKSTRES,QQYHRLPLS,4.32,1/3
KSSQSVLYEKRNKNTVP,WASTRES,QQYHRLPLS,3.57,1/3
QSSQSVLYESRNKNSVQ,WASTRES,QQYHRLPGS,2.59,1/3
KSSQSVLYESRNKNSVT,WASTSES,QQYKRLPLS,4.26,1/3
ESSQSVLYESRNKNSVV,WASTRES,QQYHRRPLS,no signal,0/3
KSSQSVLYESQNKNSVD,WASTRES,QQYHRLPLS,no signal,0/3
KSSQSVLYESRRKNSVC,WASTRES,QQCHRLPLS,no signal,0/3
KSSQSVLYESREKNSVS,WASTRES,QQYHRLPLS,2.83,1/3
KSSWSVLYEIRNKNSVP,WASTRES,QQYHRLPLS,no signal,0/3
KSIQSVLYESRMKNSVS,WASTRES,QQYHRLPLS,no signal,0/3
KSSQSGLYESRNKNSVT,WASTRES,EQYHRLPLS,4.80,3/3

The 8 strongest on average among those seen in every replicate, once more:

CDR-L1,CDR-L2,CDR-L3,"mean, log10 nM",detected
KSSQSVLYESRNKNSVC,NASKRES,QQYHRLPLS,0.80,3/3
KSSQSVLYESRNKNSVP,WAVTRES,QQYYRLPLS,0.92,3/3
KSSQSVLYESRNKNSVS,WASWRES,QQYVRLPLS,2.52,3/3
KSSQSFGYESRNKNSVC,WASTRES,QQYHRLPLS,3.46,3/3
KSSQSVLYESRNKNSVE,WASTRPS,QQYHELPLS,3.59,3/3
KSSQSVLYESRNKNSVE,WALTRDS,QQYHRLPLS,4.37,3/3
KSSQSGLYESRNKNSVT,WASTRES,EQYHRLPLS,4.80,3/3
KSSQSVLYESRNWNSVG,WASTRES,QQYHRLPLS,4.94,3/3

In this assay the parent's reference entry averaged 0.65; its copy inside this library read 1.68.